kcat, Km and kcat/Km data for two compounds are collected here from paper PMC10716778 (The Journal of Biological Chemistry, 2023).

Where only a bound is given, the exact number is not on record here.

In one series the target is KPC-2 (Klebsiella pneumoniae, UniProt Q9F663). In words: Steady-state kinetics of β-lactam hydrolysis by KPC-2. The settings on record: substrate hydrolysis by KPC-2; 30 °C, 50 mM sodium phosphate pH 7.
Series [1] deals with CC1(C)S[C@@H]2[C@H](NC(=O)[C@H](N)c3ccccc3)C(=O)N2[C@H]1C(=O)O. In words: purified protein, by the assay type. The settings on record: other: substrate hydrolysis by KPC-2, 30 °C, pH 7.

A word on the kcat: it is the maximal rate divided by the concentration of active sites. The Km is the substrate concentration at which the rate is half of its maximum. Broadly, the kcat/Km is the turnover number divided by the Michaelis constant.

Turning to `CC(C)(O/N=C(\C(=O)N[C@@H]1C(=O)N2C(C(=O)[O-])=C(C[n+]3ccccc3)CS[C@H]12)c1csc(N)n1)C(=O)O` [Ceftazidime], the turnover number (kcat) on KPC-2 was more than 0.8 s⁻¹.

For the compound KPC-2 (Klebsiella pneumoniae), in series [1], the Km turned out to be 210 ± 33 µM, the kcat came out at 160 ± 10 s⁻¹ and the kcat/Km worked out at 760000 ± 130000 M⁻¹ s⁻¹.
